We go through one compound from ChEMBL document CHEMBL4265908, “Structure-activity and structure-property relationships of novel Nrf2 activators with a 1,2,4-oxadiazole core and their therapeutic effects on acetaminophen (APAP)-induced acute liver injury” (Eur J Med Chem, 2018).

The structures appear in SMILES notation.

Holding throughout (assay type): cell-based
Assay [1] concerns the target T1, Nuclear factor erythroid 2-related factor 2 (Homo sapiens) (UniProt Q16236).
T1 sequence (whole entry): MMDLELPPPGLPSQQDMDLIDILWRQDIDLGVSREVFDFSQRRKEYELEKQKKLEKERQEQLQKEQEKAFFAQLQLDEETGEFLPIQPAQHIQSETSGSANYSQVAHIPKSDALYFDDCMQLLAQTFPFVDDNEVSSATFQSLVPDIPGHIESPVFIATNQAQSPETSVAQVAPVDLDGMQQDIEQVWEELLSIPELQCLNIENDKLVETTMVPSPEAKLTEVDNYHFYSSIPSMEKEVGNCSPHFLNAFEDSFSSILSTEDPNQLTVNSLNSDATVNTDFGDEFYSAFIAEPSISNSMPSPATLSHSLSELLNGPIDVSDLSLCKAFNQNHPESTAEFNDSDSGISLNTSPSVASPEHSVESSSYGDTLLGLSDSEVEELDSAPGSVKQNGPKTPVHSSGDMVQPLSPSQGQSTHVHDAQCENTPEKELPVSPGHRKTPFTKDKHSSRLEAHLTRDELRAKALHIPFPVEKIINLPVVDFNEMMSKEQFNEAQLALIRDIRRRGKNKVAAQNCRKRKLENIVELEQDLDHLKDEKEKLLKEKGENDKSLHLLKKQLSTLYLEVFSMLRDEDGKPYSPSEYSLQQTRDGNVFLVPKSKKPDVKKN
Put plainly: Activation of Nrf2 in human HepG2-ARE-C8 cells assessed as induction of ARE-mediated luciferase activity at 0.1 uM after 24 hrs by luciferase reporter gene assay relative to control. Summed up:
(§1)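 HepG2-ARE-C8 cells stably carrying ARE-luciferase, grown in DMEM with 10% FBS at 37 °C and 5% CO2. Seeded at 5 × 10^4 cells/well, left overnight, then given compound diluted from a 10 mM DMSO stock for 24 h. Cells lysed and luciferase read as RLU. Inductivity = (RLUtest − RLUblank)/(RLUcontrol − RLUblank), with DMSO as control. Mean ± SEM of three experiments.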

Assay [2] addresses T1, Nuclear factor erythroid 2-related factor 2 (Homo sapiens). In words: Activation of Nrf2 in human HepG2-ARE-C8 cells assessed as induction of ARE-mediated luciferase activity at 1 uM after 24 hrs by luciferase reporter gene assay relative to control. Summed up:
as §1

Assay [3] shares this target. Put plainly: Activation of Nrf2 in human HepG2-ARE-C8 cells assessed as induction of ARE-mediated luciferase activity at 20 uM after 24 hrs by luciferase reporter gene assay relative to control. Summed up:
as §1
For orientation: Reporter assays use an easily measured gene product as a stand-in for the process of interest.

Assay [4] has the same target. In words: Activation of Nrf2 in human HepG2-ARE-C8 cells assessed as induction of ARE-mediated luciferase activity at 80 uM after 24 hrs by luciferase reporter gene assay relative to control. Summed up:
as §1

The target is the same in assay [5]. Put plainly: Activation of Nrf2 in human HepG2-ARE-C8 cells assessed as induction of ARE-mediated luciferase activity at 40 uM after 24 hrs by luciferase reporter gene assay relative to control. Put shortly:
as §1

In the case of `Fc1ccc(-c2nc(-c3ccc4nc[nH]c4c3)no2)cc1`, the Activity in assay [1] stood at 2.49; in assay [2] it was 10.2; in assay [3], 27.3; in assay [4], 44.4; in assay [5], 40.8.
